From article PMC2690590, “Functional recombinant MHC class II molecules and high-throughput peptide-binding assays” (Immunome Research, 2009)

The chains behind the UniProt entries cited, without tags or fusion partners. A line that says so, or that is headed by a name, gives the form on record, which may keep a tag or linker.
UniProt P01920, with tags, fused parts or gaps with the stated changes: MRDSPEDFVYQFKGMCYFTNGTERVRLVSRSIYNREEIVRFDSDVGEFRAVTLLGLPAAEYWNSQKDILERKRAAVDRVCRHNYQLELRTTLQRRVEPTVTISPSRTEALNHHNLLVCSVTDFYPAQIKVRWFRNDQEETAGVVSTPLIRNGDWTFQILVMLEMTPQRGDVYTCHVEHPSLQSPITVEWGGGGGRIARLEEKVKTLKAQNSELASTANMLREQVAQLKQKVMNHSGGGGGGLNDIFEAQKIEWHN

Biological target: T1, DQA1*0501/DQB1*0201 (Homo sapiens, UniProt P01909+P01920, C70S)
T1 construct: HAT-DQA1*05011-181(C47S)LZFos; DQB1*0201LZ1-190JunBSP; made in house
Experiment: Direct LOCI peptide-MHC-II binding assay, DQA1*0501/DQB1*0201

Structure (SMILES)	Kd
CSCC[C@H](NC(=O)[C@@H](N)Cc1c[nH]c2ccccc12)C(=O)N[C@@H](C)C(=O)N[C@@H](CCCNC(=N)N)C(=O)N[C@@H](CCCNC(=N)N)C(=O)N[C@@H](Cc1c[nH]cn1)C(=O)N[C@@H](C)C(=O)N[C@@H](CCC(=O)O)C(=O)N[C@@H](CCCNC(=N)N)C(=O)O [Brucella]	> 5 µM
CSCC[C@H](NC(=O)[C@@H](N)Cc1ccccc1)C(=O)N[C@@H](CO)C(=O)N[C@@H](CCCNC(=N)N)C(=O)N[C@@H](CCCCN)C(=O)N[C@@H](CC(C)C)C(=O)N[C@@H](Cc1c[nH]cn1)C(=O)N[C@@H](CCCNC(=N)N)C(=O)N[C@@H](Cc1ccc(O)cc1)C(=O)O [Hantaan]	> 5 µM
